This passage reports Ki results from patent US8952177B2 (Janssen Pharmaceutica NV, priority 2013, dated 2015).

Sequences of proteins named here, by UniProt entry; tags and fusion partners are left off. A change or cut given only in a name is not applied to a line headed by its entry.
UniProt P20292: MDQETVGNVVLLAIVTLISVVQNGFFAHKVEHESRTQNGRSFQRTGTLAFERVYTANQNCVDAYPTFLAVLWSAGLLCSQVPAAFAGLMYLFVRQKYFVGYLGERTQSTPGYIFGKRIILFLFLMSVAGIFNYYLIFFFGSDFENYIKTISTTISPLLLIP

Counter-ions that a name gives are not always drawn.

This assay has as its target human FLAP (Homo sapiens (Human), UniProt P20292). As to the kind of experiment: FLAP binding assay (HTRF format). Conditions: human FLAP-containing Sf-9 membranes, 25 nM HTRF ligand, 2 h; average of runs; read-out: FLAP Binding wild type HTRF Ki.
Usually Ki stands for the dissociation constant of the complex between target and ligand, obtained from inhibition or displacement. Turning to `Cc1cnc(COc2ccc3nc([C@@H]4CCCC[C@@H]4C(=O)O)n(Cc4ccc(N5CCCCC5)cc4)c3c2)c(F)c1` (racemic) [Example 179, racemic cis-2-{6-[(3-Fluoro-5-methylpyridin-2-yl)methoxy]-1-(4-piperidin-1-ylbenzyl)-1H-benzimidazol-2-yl}cyclohexanecarboxylic acid], the Ki worked out at 0.0013 µM.

As to `Cc1ccc(COc2ccc3nc([C@H]4CCCC[C@H]4C(=O)O)n(Cc4ccc(N5CCCCC5)cc4)c3c2)nc1` (stereo in doubt) [Example 158, (1R*,2S*)-2-{6-[(5-Methylpyridin-2-yl)methoxy]-1-(4-piperidin-1-ylbenzyl)-1H-benzimidazol-2-yl}cyclohexanecarboxylic acid], the inhibitory constant (Ki) is 0.27 µM.

`Cc1cnc(COc2ccc3nc([C@@H]4CCCC[C@@H]4C(=O)O)n(Cc4ccc(Br)cc4)c3c2)c(F)c1` (racemic) [Example 125, racemic cis-2-{1-(4-Bromobenzyl)-6-[(3-fluoro-5-methylpyridin-2-yl)methoxy]-1H-benzimidazol-2-yl}cyclohexanecarboxylic acid]: the Ki came to 0.0011 µM.

For `Cc1cnc(COc2ccc3nc(CC(C)(C)C(=O)O)n(Cc4ccc(Br)cc4F)c3c2)c(F)c1` [Example 129, 3-{1-(4-Bromo-2-fluorobenzyl)-6-[(3-fluoro-5-methylpyridin-2-yl)methoxy]-1H-benzimidazol-2-yl}-2,2-dimethylpropanoic acid], the Ki worked out at 0.014 µM.

As to `CCC(CC)(Cc1nc2ccc(OCc3ccn(C)n3)cc2n1Cc1ccc(C#N)cc1)C(=O)O` [Example 49, 2-({1-(4-Cyanobenzyl)-6-[(1-methyl-1H-pyrazol-3-yl)methoxy]-1H-benzimidazol-2-yl}methyl)-2-ethylbutanoic acid as the TFA salt], the Ki was roughly 1.88 µM.

In the case of `Cc1ccc(COc2cc(Cl)c3nc([C@@H]4[C@H](C(=O)O)C4(C)C)n(Cc4ccc(Br)cc4)c3c2)nc1` (racemic) [Example 76, racemic cis-3-{1-(4-Bromobenzyl)-4-chloro-6-[(5-methylpyridin-2-yl)methoxy]-1H-benzimidazol-2-yl}-2,2-dimethylcyclopropanecarboxylic acid], the inhibitory constant (Ki) worked out at 0.021 µM.

Take `Cc1ccc(COc2cc(Cl)c3nc(C4CCCC[C@H]4C(=O)O)n(Cc4ccc(Br)cc4)c3c2)nc1` (mixture of isomers) [Example 75, racemic cis-2-{1-(4-Bromobenzyl)-4-chloro-6-[(5-methylpyridin-2-yl)methoxy]-1H-benzimidazol-2-yl}cyclohexanecarboxylic acid]: the Ki is 0.0058 µM.

For the compound `Cc1ccc(COc2ccc3nc([C@H]4[C@H](C(=O)O)C4(C)C)n(Cc4ccc(Br)cc4)c3c2)nc1` (stereo in doubt) [Example 116, (1S*,3S*)-3-{1-(4-Bromobenzyl)-6-[(5-methylpyridin-2-yl)methoxy]-1H-benzimidazol-2-yl}-2,2-dimethylcyclopropanecarboxylic acid], the Ki was roughly 0.4 µM.

For the compound `Cn1ccc(COc2ccc3nc(C4CCCC[C@H]4C(=O)O)n(Cc4ccc(Br)cc4)c3c2)n1` (mixture of isomers) [Example 41, racemic trans-2-{1-(4-Bromobenzyl)-6-[(1-methyl-1H-pyrazol-3-yl)methoxy]-1H-benzimidazol-2-yl}cyclohexanecarboxylic acid as the TFA salt], the Ki is 0.011 µM.

As for `Cc1cnc(COc2ccc3nc([C@H]4CCCC[C@@H]4C(=O)O)n(Cc4c(F)cc(Br)cc4F)c3c2)c(F)c1` (racemic) [Example 124, racemic trans-2-{1-(4-Bromo-2,6-difluorobenzyl)-6-[(3-fluoro-5-methylpyridin-2-yl)methoxy]-1H-benzimidazol-2-yl}cyclohexanecarboxylic acid], the Ki worked out at 0.00052 µM.

For the compound `CCC(CC)(Cc1nc2ccc(OCc3ncc(C)cc3F)cc2n1Cc1ccc(C#N)cc1)C(=O)O` [Example 135, 2-({1-(4-Cyanobenzyl)-6-[(3-fluoro-5-methylpyridin-2-yl)methoxy]-1H-benzimidazol-2-yl}methyl)-2-ethylbutanoic acid], the Ki is 0.012 µM.

As to `CCC(CC)(Cc1nc2ccc(OCc3ccn(C)n3)cc2n1Cc1ccc(OC(F)(F)F)c(F)c1)C(=O)O` [Example 57, 2-Ethyl-2-({1-[3-fluoro-4-(trifluoromethoxy)benzyl]-6-[(1-methyl-1H-pyrazol-3-yl)methoxy]-1H-benzimidazol-2-yl}methyl)butanoic acid], the inhibition constant (Ki) was 0.045 µM.

With `Cn1ccc(COc2ccc3nc(CC4(C(=O)O)CCCC4)n(Cc4ccc(Br)cc4)c3c2)n1` [Example 46, 1-({1-(4-Bromobenzyl)-6-[(1-methyl-1H-pyrazol-3-yl)methoxy]-1H-benzimidazol-2-yl}methyl)cyclopentanecarboxylic acid as the TFA salt], the Ki turned out to be 0.11 µM.

With `Cc1ccc(COc2ccc3nc([C@H]4[C@@H](C(=O)O)C4(C)C)n(Cc4ccc(Br)cc4F)c3c2)nc1` (stereo in doubt) [Example 16, (1S*,3R*)-3-{1-(4-Bromo-2-fluorobenzyl)-6-[(5-methylpyridin-2-yl)methoxy]-1H-benzimidazol-2-yl}-2,2-dimethylcyclopropanecarboxylic acid], the inhibition constant Ki was 0.023 µM.

Regarding `Cc1ccc(COc2ccc3nc([C@H]4CCCC[C@H]4C(=O)O)n(Cc4ccc(OC(F)(F)F)cc4F)c3c2)nc1` (racemic) [Example 26, racemic cis-2-{1-[2-Fluoro-4-(trifluoromethoxy)benzyl]-6-[(5-methylpyridin-2-yl)methoxy]-1H-benzimidazol-2-yl}cyclohexanecarboxylic acid], the Ki came out at 0.0043 µM.

Turning to `Cc1cnc(COc2ccc3nc(CC(C)(C)C(=O)O)n(Cc4ccc(N5CCC(C)CC5)cc4)c3c2)c(F)c1` [Example 185, 3-{6-[(3-Fluoro-5-methylpyridin-2-yl)methoxy]-1-[4-(4-methylpiperidin-1-yl)benzyl]-1H-benzimidazol-2-yl}-2,2-dimethylpropanoic acid], the inhibition constant (Ki) is 0.025 µM.

Take `Cc1cnc(COc2ccc3nc([C@@H]4CCCC[C@@H]4C(=O)O)n(Cc4c(F)cc(Br)cc4F)c3c2)c(F)c1` (racemic) [Example 123, racemic cis-2-{1-(4-Bromo-2,6-difluorobenzyl)-6-[(3-fluoro-5-methylpyridin-2-yl)methoxy]-1H-benzimidazol-2-yl}cyclohexanecarboxylic acid]: the Ki turned out to be 0.00061 µM.

With `Cc1ccc(COc2ccc3nc([C@@H]4CCCC[C@@H]4C(=O)O)n(Cc4ccc(N5CCC(F)(F)C5)cc4F)c3c2)nc1` (stereo in doubt) [Example 164, (1S*,2R*)-2-{1-[4-(3,3-Difluoropyrrolidin-1-yl)-2-fluorobenzyl]-6-[(5-methylpyridin-2-yl)methoxy]-1H-benzimidazol-2-yl}cyclohexanecarboxylic acid], the inhibition constant (Ki) is roughly 0.75 µM.

As for `Cc1ccc(COc2cc(F)c3nc(C4CCCC[C@H]4C(=O)O)n(Cc4ccc(OC(F)(F)F)cc4)c3c2)nc1` (mixture of isomers) [Example 66, racemic cis-2-{4-Fluoro-6-[(5-methylpyridin-2-yl)methoxy]-1-[4-(trifluoromethoxy)benzyl]-1H-benzimidazol-2-yl}cyclohexanecarboxylic acid as the TFA salt], the inhibition constant (Ki) is 0.0077 µM.
